What was measured:
[1] = system: African green monkey kidney fibroblast (Vero cells); assay: Cytotoxicity by sulforhodamine B (SRB) colorimetric assay; type: cell-based; conditions: Vero CC50 / P. falciparum 3D7 IC50
Excerpt: (§1) A cytotoxicity test of selected analogs against African green monkey kidney fibroblast (Vero cells) was obtained from Bioassay Laboratory, BIOTEC, NSTDA, Thailand. They were maintained continuously in MEM/EBSS medium (Hyclone Laboratories Inc., South Logan, UT, USA), supplemented with 10% heated fetal bovine serum (GE Healthcare, PAA Laboratories GmbH, Pasching, Austria), 2.2 g/L Sodium bicarbonate (Emsure, Merck kGaA, Darmstadt, Germany), and 1% sodium pyruvate (Sigma). […] Then, the cells were fixed with 100 µL of 10% trichloroacetic acid (Sigma) at 4 °C for 45 min, washed, and dried at room temperature overnight. […] Finally, 200 µL of 10× Tris-base was added to each well to dissolve protein-bound dye. The OD was determined at a wavelength of 510 nm. The control media was used for overall background subtraction as 0% and untreated cells as 100% control without any cytotoxic effect. The IC50 value of each compound was determined from the dose–response curve.

[2] = as above; type: cell-based, African green monkey; conditions: African green monkey; Vero cells, 72 h, SRB, mean ± SD of three repeats
Excerpt: as §1

With `COc1cc(NC(C)CCCN)c2ncccc2c1` (centres unmarked) [PQ, primaquine bisphosphate, reference compound] the “SI, selectivity index = CC50 on Vero cells / IC50 in the blood stage” value [1] was >8.8 and the CC50 at 72 h [2] was > 100 µM.

Reference: paper PMC8272044, “5-Phenoxy Primaquine Analogs and the Tetraoxane Hybrid as Antimalarial Agents” (Molecules, 2021)
